# Biological target: acetylcholine esterase (Homo sapiens, UniProt P06276)
# Amino acid sequences for entries named in this document (tags omitted). Residues count along the entry.
# UniProt P06276, 29-602: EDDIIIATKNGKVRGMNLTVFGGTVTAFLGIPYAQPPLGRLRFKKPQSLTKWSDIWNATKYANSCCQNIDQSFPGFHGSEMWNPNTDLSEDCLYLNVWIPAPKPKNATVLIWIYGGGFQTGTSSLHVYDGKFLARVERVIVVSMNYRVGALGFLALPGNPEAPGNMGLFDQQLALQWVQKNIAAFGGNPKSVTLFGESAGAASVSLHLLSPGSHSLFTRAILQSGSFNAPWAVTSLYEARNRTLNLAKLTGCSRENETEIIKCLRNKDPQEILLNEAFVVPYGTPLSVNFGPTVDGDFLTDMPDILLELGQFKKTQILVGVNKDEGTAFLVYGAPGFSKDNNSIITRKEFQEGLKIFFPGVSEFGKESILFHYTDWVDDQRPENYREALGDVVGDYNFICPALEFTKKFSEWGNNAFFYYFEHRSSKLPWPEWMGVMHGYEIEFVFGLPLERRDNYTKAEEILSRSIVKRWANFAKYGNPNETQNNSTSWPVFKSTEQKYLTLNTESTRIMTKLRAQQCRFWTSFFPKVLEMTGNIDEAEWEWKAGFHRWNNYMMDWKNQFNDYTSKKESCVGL
# Assay: Inhibition of acetylcholine esterase, modified method of Ellmann, human serum
# Type: biochemical
# Conditions: ACHE inhibition
Substance,"IC50 (human serum pool, compounds of formula (II)) [µM]","IC50 in μMol (human serum from a pool of 10 test subjects, 37° C., pH 7.8, compounds of general formula (I))"
"3R-2,3,4,4a-tetrahydro-7-bromo-9-methoxy-10-hydroxy (1H,6H) (5,10b) ethanophenanthridine-10-ol [Substance 116]",50,–
methylnarwedine Oxime [Substance 78],–,insol.

# From patent publication US7101890B2, “Benzazepine derivatives, drugs containing these and use of the same for producing drugs” (priority 1996, dated 2006)
